pIC50: −log10 of the molar value.
Target: Acetylcholinesterase (Electrophorus electricus, UniProt O42275)

Cc1c(OC(=O)N(C)C)c(=O)ccn1-c1ccc(OC(=O)N(C)C)cc1
pIC50: 3.60

From BindingDB's records for 26869193
